Data: patent publication US20070142411A1, “Use of cyclooxygenase-2 selective inhibitors for the treatment of schizophrenic disorders” (priority 2003, published 2007)

Amino acid sequences for entries named in this document (tags omitted). Residues count along the entry.
UniProt P23219, 24-599: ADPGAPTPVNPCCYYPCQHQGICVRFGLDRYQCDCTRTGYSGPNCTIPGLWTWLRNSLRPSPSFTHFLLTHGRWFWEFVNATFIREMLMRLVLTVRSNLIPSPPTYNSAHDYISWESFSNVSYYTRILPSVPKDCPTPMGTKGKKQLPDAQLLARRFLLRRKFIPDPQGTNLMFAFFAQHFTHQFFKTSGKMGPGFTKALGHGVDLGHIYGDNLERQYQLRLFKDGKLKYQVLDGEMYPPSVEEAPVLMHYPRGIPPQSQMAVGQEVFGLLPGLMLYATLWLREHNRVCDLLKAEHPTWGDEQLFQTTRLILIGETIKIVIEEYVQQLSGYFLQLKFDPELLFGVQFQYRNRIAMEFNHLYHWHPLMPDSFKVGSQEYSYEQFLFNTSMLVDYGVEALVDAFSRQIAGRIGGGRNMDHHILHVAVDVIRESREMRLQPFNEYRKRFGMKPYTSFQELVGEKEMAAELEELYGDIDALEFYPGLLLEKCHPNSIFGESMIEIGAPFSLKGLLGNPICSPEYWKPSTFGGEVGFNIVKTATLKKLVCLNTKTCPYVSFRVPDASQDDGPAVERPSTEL

Biological target: T1, human COX-1 (Homo sapiens, UniProt P23219)
T1 construct: expressed in transfected cells; host or cells: COS cells (stably transfected)
Experiment: Inhibition of PGE2 release in COS cells stably transfected with human COX-1
Format: cell-based
Settings: COS cells transfected with human COX-1, 30 μM arachidonic acid

`CS(=O)(=O)c1ccc(-c2c(-c3ccc(F)cc3)nn3nc(S(C)(=O)=O)ccc23)cc1` [2.4(iii), 2-(4-Fluoro-phenyl)-6-methanesulfonyl-3-(4-methanesulfonyl-phenyl)-pyrazolo[1,5-b]pyridazine] was tested, and the IC50 was over 100 µM.
